The text below walks through data of US20090263396A1, “INHIBITORS OF T-DARPP FOR USE IN COMBINATION ANTI-CANCER THERAPIES” (VANDERBILT UNIVERSITY, priority 2007, published 2009).

In general, IC50 refers to the midpoint of a concentration-inhibition curve.

The subject of series [1] is BT-474 cells. Kind of series: CellTiter-Glo Luminescent Cell Viability Assay, BT-474. Conditions: trastuzumab 5 and 10 μg/ml, 24 h and 48 h; BT-474 compared to HR5 and HR6. Format: cell-based, human. From the text:
(§1) (FIG. 1B) Protein extracts from non-treated cells (BT-474, HR5, and HR6) were subjected to Western blot analysis of ERBB2 and t-DARPP. […] However, t-DARPP protein levels were dramatically higher in HR5 and HR6 as compared to BT-474 cells. […] (FIG. 1D) Protein extracts from non-treated SKBR-3-t-DARPP-1, SKBR-3-t-DARPP-7, and control SKBR-3 cells were subjected to immunobloting of EBB2 and t-DARPP. […] Gel loading was normalized for equal β-actin.
(§2) FIGS. 3A-D—Knockdown of t-DARPP induces apoptosis in trastuzumab-resistant and -sensitive breast cancer cells. (FIG. 3A) BT-474, HR5, and HR6 cells were transfected with control scrambled siRNA or t-DARPP siRNA oligonucleotides and then subjected to Titer-Glo-Luminescent Viability Assay 24 hr and 48 hr post-transfection. […] (FIGS. 3B-D) Cells were transfected with control scrambled siRNA or t-DARPP siRNA oligonucleotides. […]
(§3) Gene expression knockdown by small-interfering RNA (siRNA): The BT-474, HR5 and HR6 cells were transfected with control siRNA (sc-37007) or t-DARPP siRNA (sc-35173, a pool of 3 t-DARPP-specific siRNA oligonucleotides) using siRNA transfection reagent (sc-29528), and transfection medium (sc-36868) following the manufacturer's instructions (Santa Cruz Biotechnology, Santa Cruz, Calif.). […] In addition, AKT, p-Ser473 AKT, HSP90, and BCL2 were analyzed in HR6 cells. […]
On the technique in general: Cellular ATP, detected with luciferase, serves as a proxy for viable cell number.

The subject of series [2] is HR5 cells. Put plainly: CellTiter-Glo Luminescent Cell Viability Assay, HR5. Format: cell-based, human. As to conditions: trastuzumab 5 and 10 μg/ml, 24 h and 48 h; HR5 vs parental BT-474.
Source text: as §1, §2, §3

Series [3] deals with HR6 cells. Put plainly: CellTiter-Glo Luminescent Cell Viability Assay, HR6. Conditions: trastuzumab 5 and 10 μg/ml, 24 h and 48 h; HR6 vs parental BT-474. Format: cell-based, human.
Source text: as §1, §2, §3

Series [4] deals with SKBR-3 cells stably expressing t-DARPP (Clones #1 and #7). Put plainly: CellTiter-Glo Luminescent Cell Viability Assay, SKBR-3 stably expressing t-DARPP. In kind it is cell-based, human. Conditions: following treatment with trastuzumab; vs control SKBR-3 cells.
Source text: as §1
Vectors: The expression plasmid for t-DARPP was generated by PCR amplification of the full-length coding sequence of t-DARPP and cloned in frame into pcDNA3.1 (Invitrogen Life Technologies, Carlsbad, Calif.). Cloning of t-DARPP was confirmed by sequencing and restriction enzyme digestion as described elsewhere (Belkhiri et al., 2005). Stably transfected SKBR-3 cells expressing t-DARPP or pcDNA3.1 empty vector were generated as described previously (Belkhiri et al., 2005). After selection with 400 μg/ml of neomycin (Invitrogen Life Technologies, Carlsbad, Calif.), the resulting resistant clones were screened for t-DARPP protein expression by Western blot analysis.
Cell survival assay: 5×10^3 cells (BT474, HR5 and HR6 cells) per well were plated in a 96-well plate. […] This assay has high sensitivity in measurement of cell survival and can detect as little as a single cell or 0.01 picomoles of ATP. […]

Series [5] deals with BT-474 cells. As to conditions: Yakes et al., 2002; cited from earlier work.
Series [6] deals with SKBR-3 cells. As to conditions: Yakes et al., 2002; cited from earlier work.
The conditions of series [7]: human, in vivo; cited from earlier work.

As for trastuzumab, the Cell survival result was “significantly lower” in series [1], “increased cell survival” in series [2], “increased cell survival” in series [3] and “markedly higher” in series [4]. Also, the IC50 in series [5] and in series [6] was 0.2 to 0.5 µg/mL throughout. Besides, the “patients unable to tolerate the drug because of pre-existing heart problems” value in series [7] is listed as “Approximately 10 % of patients”.
